Antibody variant affinities, Ab-95 light chain, assay 2

From the AlphaSeq antibody data of Engelhart et al. 2022 (doi:10.1038/s41597-022-01779-4), copy in the FLAb collection.

Target: peptide PDVDLGDISGINAS, taken from heptad repeat 2 (HR2) of SARS-CoV-2 spike.

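Phage display of a naive human antibody library on the peptide gave the parent. Variants in AAYL52 differ from the parent at up to three CDR positions; double and triple changes were sampled at random. Affinity was read by AlphaSeq, a pooled yeast mating assay with surface-displayed partners. Binding brings cells together so that they mate, and sequencing counts the barcode pairs among the diploids. Read counts were normalised to the haploid input and turned into Kd by a linear fit to BCL2-family pairs of known affinity, for each replicate. There are three technical replicates.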

Parent scFv Ab-95: VH joined to VL by a 15-residue (Gly4Ser)3 linker. Changes lie in the light chain CDRs alone.
VH: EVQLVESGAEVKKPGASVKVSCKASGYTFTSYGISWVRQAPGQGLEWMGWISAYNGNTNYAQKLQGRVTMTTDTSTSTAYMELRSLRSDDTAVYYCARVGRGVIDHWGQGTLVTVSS
VL: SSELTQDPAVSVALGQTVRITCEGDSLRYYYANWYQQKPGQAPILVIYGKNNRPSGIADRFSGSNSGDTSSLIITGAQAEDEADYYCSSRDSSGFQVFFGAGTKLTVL

Variants are written as CDR1, CDR2 and CDR3 of the light chain (limits as in the source). Parent: EGDSLRYYYAN, GKNNRPS, SSRDSSGFQVF. This list gathers variants with a substitution at Y29 (VL, numbered from residue 1). Kd is apparent (estimated from mating counts) and averaged on the log scale over replicates with a signal. Smaller is tighter. Where no diploid with the target was found in any replicate, the entry reads "not detected": below detection, most likely a poor binder, though not proof of it. Background: pairings of library AAYL52 with three empty control strains gave a value in 28% of cases (median 8.2 µM, 5th percentile 800 nM). Values in that range, when seen in few replicates, are hard to tell from nonspecific mating. For reference, the parent read 200 nM as the reference entry and 180 nM as a member of this library.

| CDR-L1 | CDR-L2 | CDR-L3 | Kd (apparent) | seen in |
|---|---|---|---|---|
| EGDSLRLYYAN | GKNIRPS | SSRDSSGFQVP | 2.8 µM | 3 of 3 |
| EVDSLRMYYAN | GKNNRPS | SSRDSSGSQVF | 10 µM | 3 of 3 |
| EGDSLRSYYAN | GKNNPPS | SSRDSSGYQVF | not detected | 0 of 3 |
| EGDSLRKYMAN | GKNNRPS | SSRDSSGFQVF | 72 nM | 3 of 3 |
| DGTSLRQYYAN | GKNNRPS | SSRDSSGFQVF | 420 nM | 3 of 3 |
| EGDSLRFYYAN | GKNNRPS | SSRDSSGAQVF | 330 nM | 3 of 3 |
| EGDSLRVYYAN | GKNNRPS | SFRDSSGFQRF | 18 µM | 3 of 3 |
| EGDSLRNYNAN | GKNNRPS | SSRDSSGFQVQ | 3.8 nM | 3 of 3 |
| RGDSLRFYYAN | GKNNRPS | SSEDSSGFQVF | 9.2 µM | 2 of 3 |
| FGDSLRHYYAN | GKNNYPS | SSRDSSGFQVF | not detected | 0 of 3 |
| EGDSLRNYYAN | GKNNRPS | SCRDSSGFQMF | 58 nM | 3 of 3 |
| EGDSLRVYYQN | GKNNRPS | SSRDSSGFQVF | 11 µM | 1 of 3 |
| EGDSLEKYYAN | HKNNRPS | SSRDSSGFQVF | 2.0 µM | 3 of 3 |
| EGDSLRHYYHN | GKNNRPS | SSRDSSGFLVF | 610 nM | 3 of 3 |
| EGDSLREYYAN | GKNNLPS | SSRDSLGFQVF | 680 nM | 1 of 3 |
| EGDSLRAYYAN | GYHNRPS | SSRDSSGFQVF | 3.8 µM | 3 of 3 |
| FGDSLRGYYAN | GKNNRPS | SSRDSQGFQVF | 550 nM | 3 of 3 |
| EGDSARLYYAN | GKNNRPS | SSRDSSGFQVS | 29 µM | 1 of 3 |
| EGDSLRTYYAN | GKNNRPS | SSRDFSGMQVF | 65 nM | 3 of 3 |
| EVDSLRDYYAN | GKNNRFS | SSRDSSGFQVF | not detected | 0 of 3 |
| EGDSLRPYYAN | GKNNRPS | SSRDSSGFQVF | 290 nM | 3 of 3 |
| EGDFLRWYYAN | GKNNRVS | SSRDSSGFQVF | 49 nM | 3 of 3 |
| EGDSLRWYYAN | GKNNRPS | SSRNSSGFQVL | 810 nM | 3 of 3 |
| EGDSLRCYYAS | GKNNRFS | SSRDSSGFQVF | 1.6 µM | 1 of 3 |
| EGDSVRNYYAN | GKNNRPS | SSRDSSGFQVF | 110 nM | 3 of 3 |
| EGDSLREYYAQ | DKNNRPS | SSRDSSGFQVF | 2.1 µM | 3 of 3 |
| EGDCLRSYYAN | GKNNRPS | SSRDSSCFQVF | 2.2 µM | 3 of 3 |
| EGDSLRFYYAF | GYNNRPS | SSRDSSGFQVF | 2.6 µM | 1 of 3 |
| EGDSLRIYYAN | GKNNRKS | SSRDFSGFQVF | not detected | 0 of 3 |
| EGDSLRQYYAN | GKNNRWS | SSRDSSYFQVF | not detected | 0 of 3 |
| EGDSLRLYYAN | HKNNRTS | SSRDSSGFQVF | not detected | 0 of 3 |
| EGDSTRGYYAN | GKNNMPS | SSRDSSGFQVF | not detected | 0 of 3 |
| EGDSLRQYYAN | GKNNRPA | SSRDSSGFNVF | 180 nM | 3 of 3 |
| EGTSLRSYYAN | GKNNRPS | SSRDSSHFQVF | 15 µM | 2 of 3 |
| EGDSLRRYYAN | GKNNRPS | SMRDSYGFQVF | not detected | 0 of 3 |
| EGDSLQPYYAN | GWNNRPS | SSRDSSGFQVF | 1.6 µM | 3 of 3 |
| EGDSLRWYYAN | GKKNRPS | SSYDSSGFQVF | 21 µM | 2 of 3 |
| EGDSLWIYYAN | GKNNRPS | SSRDHSGFQVF | not detected | 0 of 3 |
| EGDSLRSYYAN | GKNNRES | SSKDSSGFQVF | 450 nM | 3 of 3 |
| EGDSLRSYYEN | GKNNRAS | SSRDSSGFQVF | 9.2 µM | 1 of 3 |
| EGDSDRSYYAN | GCNNRPS | SSRDSSGFQVF | 11 µM | 2 of 3 |
| EGDSLRHYYMN | GKNNRPS | SSFDSSGFQVF | 6.2 µM | 2 of 3 |
| EGDSLRGYYAN | GKNCLPS | SSRDSSGFQVF | 880 nM | 3 of 3 |
| EGDSARQYYAA | GKNNRPS | SSRDSSGFQVF | 12 µM | 1 of 3 |
| EGDSLRGYYAN | GKNNRPT | SSRDSSGWQVF | 45 nM | 3 of 3 |
| EGDSLRKYYAN | GKNNRPS | SSAQSSGFQVF | 2.6 µM | 3 of 3 |
| EGDSLYKYYAN | GKNNRPS | SSRDSSGFKVF | 730 nM | 3 of 3 |
| EGDSLRSYQAN | GKNNRPS | SSRDTSGFQVF | 8.9 nM | 3 of 3 |
| EGDSLWIYYAN | GKNNPPS | SSRDSSGFQVF | 28 µM | 1 of 3 |
| EGDSLRGYYAN | GKNNRPS | SSRWSSGFQVF | 18 µM | 1 of 3 |
| EGDSLRCESAN | GKNNRPS | SSRDSSGFQVF | 38 nM | 3 of 3 |
| EGDSLRQYYAN | GDNNRPS | SNRDSSGFQVF | 160 nM | 3 of 3 |
| EGCSLRFYYAN | GKNNRPS | SSRDSSGHQVF | not detected | 0 of 3 |
| EYDSLWPYYAN | GKNNRPS | SSRDSSGFQVF | 40 nM | 3 of 3 |
| ENDSLRFYYAN | GKNNRSS | SSRDSSGFQVF | 280 nM | 1 of 3 |
| EGDSIRRYYAN | GKNNRPS | SSRDSSPFQVF | 590 nM | 1 of 3 |
| EGDSLRCYYAN | GHNNRPS | SSFDSSGFQVF | 31 µM | 2 of 3 |
| EGDSLREYYAN | GKNNRMS | SSRDSSGFQVF | 170 nM | 3 of 3 |
| EGDSLREYYAN | GSNNRPS | SSRDSSGFQVF | 250 nM | 3 of 3 |
| EGDSLREYYAN | GKNNRPW | SSRDSSQFQVF | 10 µM | 3 of 3 |
| EGDSLRMYYAE | GKNNRPS | SSNDSSGFQVF | 13 µM | 1 of 3 |
| EGDSLRWYYAD | GKNNRYS | SSRDSSGFQVF | not detected | 0 of 3 |
| EGDSLRWYYAN | GKNNRPS | SSRDSNRFQVF | 1.1 mM | 1 of 3 |
| EGDSLRGQYAN | GKNNRPS | SSRDSSGFKVF | 10 nM | 3 of 3 |
| EGDSLRIYYAN | GKYNRPS | ESRDSSGFQVF | 130 µM | 2 of 3 |
| EHDSLRVYYAN | GKNRRPS | SSRDSSGFQVF | 44 µM | 2 of 3 |
| EGDSLRNYYAN | GKNNRPS | TSRDSSGFQKF | 77 nM | 3 of 3 |
| EGDSLRHYYAN | GKNNRPS | KSRDSKGFQVF | not detected | 0 of 3 |
| EGDSGRGYYAN | GKNNRPS | SSRDSSKFQVF | 750 nM | 3 of 3 |
| EGDSLRTYYAN | GKNYRKS | SSRDSSGFQVF | 17 µM | 1 of 3 |
| EGDSLGQYYAN | GKNPRPS | SSRDSSGFQVF | not detected | 0 of 3 |
| EGDSLREYYAN | GKNNRPS | SSRDSGIFQVF | 1.2 µM | 3 of 3 |
| WGDSLRDYYAL | GKNNRPS | SSRDSSGFQVF | not detected | 0 of 3 |
| EGDSLRSYYAN | GVNNRPS | SSRDSHGFQVF | 750 nM | 3 of 3 |
| EGDSLRPYYAN | GKNNRPS | SSRDSAGFQVF | 6.0 µM | 3 of 3 |
| EGDPLRSYYAC | GKNNRPS | SSRDSSGFQVF | 300 nM | 3 of 3 |